## Apparent affinities of Ab-95 variants for a coronavirus HR2 peptide

From the AlphaSeq antibody data of Engelhart et al. 2022 (doi:10.1038/s41597-022-01779-4), copy in the FLAb collection.

All variants were tested on one target, the spike HR2 peptide PDVDLGDISGINAS (SARS-CoV-2).

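The starting antibody came from a phage panning campaign against this peptide. Variants in AAYL52 differ from the parent at up to three CDR positions; double and triple changes were sampled at random. Affinity was read by AlphaSeq, a pooled yeast mating assay with surface-displayed partners. Pairs that bind mate more often; barcode pairs of the diploids are counted by sequencing. The ratio of observed to expected reads was calibrated, replicate by replicate, on BCL2-family standards whose Kd was known from biolayer interferometry. The assay was run in three technical replicates.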

Each scFv is VH, a (GGGGS)3 linker, VL, as in the parent Ab-95, and differs from it in the CDRs of the light chain only.
VH: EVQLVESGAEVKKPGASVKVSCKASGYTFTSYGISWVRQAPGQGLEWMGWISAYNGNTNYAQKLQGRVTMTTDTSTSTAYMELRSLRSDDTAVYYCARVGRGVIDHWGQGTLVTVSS
VL: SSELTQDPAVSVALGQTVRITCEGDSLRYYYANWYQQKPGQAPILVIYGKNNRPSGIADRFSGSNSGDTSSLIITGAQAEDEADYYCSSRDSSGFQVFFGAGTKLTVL

Changes read parent residue, position, new residue, counted from the first residue of the VL shown. The read-out is the apparent dissociation constant on a log10 scale (nM): the lower, the stronger. The mean shown is taken over the replicates in which the pair was detected. A pair that was not seen in that replicate is written "n.d."; this usually means weak binding, but a binder can also be missed. Background: pairings of library AAYL52 with three empty control strains gave a value in 28% of cases (median 3.91, 5th percentile 2.90). Values in that range, when seen in few replicates, are hard to tell from nonspecific mating. Also given: how often the same scFv was detected with the empty control strains, with their mean in brackets.

changes,log10 Kd (nM) by replicate,mean log10 Kd (nM),empty controls
L27C S55K F95Y,3.93 / n.d. / 3.19,3.56,4 of 9 (3.82)
E23N D25T S55D,1.45 / 2.14 / 0.89,1.49,2 of 9 (4.85)
A32D P54L Q96G,3.32 / 3.03 / n.d.,3.17,3 of 9 (4.45)
N33P N52M F95N,4.08 / 4.81 / n.d.,4.44,4 of 9 (3.97)
G24H Y29P D91G,2.59 / 3.15 / 3.19,2.98,2 of 9 (4.46)
G24E N33W,n.d. / n.d. / n.d.,n.d.,1 of 9 (4.57)
K50M F95V,2.73 / 2.86 / 2.44,2.68,3 of 9 (3.56)
Y29P K50H P54Y,3.71 / 5.20 / n.d.,4.45,5 of 9 (3.56)
G24I K50D R90S,3.77 / n.d. / 3.86,3.81,2 of 9 (4.12)
R28Q S88N S93V,3.35 / 4.09 / n.d.,3.72,1 of 9 (3.18)
S26F R28D F98S,4.81 / n.d. / n.d.,4.81,3 of 9 (4.57)
Y31Q K50V,1.24 / 1.23 / 0.66,1.04,3 of 9 (3.92)
S26I R53F S92N,n.d. / 4.90 / 3.41,4.16,2 of 9 (3.74)
L27P P54C,n.d. / 4.69 / n.d.,4.69,3 of 9 (3.80)
Q96I V97D,n.d. / n.d. / 3.76,3.76,2 of 9 (3.66)
S26G V97H,3.33 / 3.38 / 3.21,3.30,6 of 9 (4.09)
D25P A32V R90T,3.25 / 3.58 / 3.81,3.55,1 of 9 (4.29)
L27D Y29D V97F,n.d. / n.d. / 2.96,2.96,0 of 9
S88I G94C F95T,2.92 / 2.86 / 2.75,2.84,1 of 9 (3.48)
Y29K N52A G94A,3.99 / n.d. / n.d.,3.99,1 of 9 (3.40)
L27W S89C S92R,2.16 / 2.47 / 1.67,2.10,4 of 9 (3.58)
Y30K K50V D91I,1.27 / 1.01 / 1.30,1.19,2 of 9 (3.66)
S26E N33R S92R,2.74 / 2.79 / 2.44,2.66,4 of 9 (4.06)
E23P R28V,n.d. / n.d. / n.d.,n.d.,3 of 9 (4.12)
Y30P G49H S88V,3.04 / 3.67 / 4.06,3.59,1 of 9 (3.26)
D25W R28T S92F,4.53 / n.d. / n.d.,4.53,3 of 9 (3.85)
P54W S55G V97P,3.36 / 3.87 / n.d.,3.62,3 of 9 (3.91)
S93F F95Y V97G,n.d. / n.d. / n.d.,n.d.,0 of 9
P54E S55N Q96T,2.69 / 2.74 / 2.86,2.76,2 of 9 (3.56)
N33P N51P,n.d. / 3.73 / n.d.,3.73,1 of 9 (4.43)
G49R S89V G94H,n.d. / n.d. / n.d.,n.d.,2 of 9 (3.58)
D25P R28S Q96R,2.73 / 2.62 / 2.52,2.62,1 of 9 (4.31)
N33Y N52K R90D,4.75 / n.d. / n.d.,4.75,0 of 9